These results are taken from patent publication US4801458A, “Sustained release pharmaceutical plaster” (dated 1989).

The data set can be described thus: Moisture content versus isosorbide dinitrate content of moisturized plaster (Experiment Example 6). Conditions: moisturized plaster of Example 5, room temperature, Table 6.

Turning to `O=[N+]([O-])O[C@H]1CO[C@H]2[C@@H]1OC[C@H]2O[N+](=O)[O-]`, the “evaporation of isosorbide dinitrate (in words)” value is reported as “scarcely evaporated”.
